The entries are a selection whose mix differs from that of the whole data set. The source made the active and inactive calls.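 The calls were made as follows: active = mean inhibition of at least 50% after viability correction, with every replicate also passing that limit; inconclusive = mean reaches 50% but only one of two replicates passes; inactive = the rest.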
Experiment: EWS/Fli-driven NR0B1 reporter inhibitors, primary screen, A673 cells, NR0B1 luciferase, luminescence, MLPCN library (AID 651661);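 also: firefly luciferase signal divided by Alamar Blue viability fluorescence both relative to DMSO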
Settings: viability-normalised, at 12.6 µM, stronger effect = higher value

| Structure (SMILES) | inhibition |
| --- | --- |
| Cc1ccc(S(=O)(=O)N(CCCN)CCCc2c(C)nc(N)[nH]c2=O)cc1 | inactive: 0.215% |
| NS(=O)(=O)c1cccc(NC(=O)COC(=O)C(O)(c2ccccc2)c2ccccc2)c1 | inactive: 1.15% |
| O=[As](O)(c1cccs1)c1cccs1 | inactive: -6.13% |
| Nc1cccc([As](=O)(O)c2ccccc2)c1 | inactive: -7.14% |
| CC1CCC(C(C)C)C(OP(=O)(Nc2ccccn2)c2ccccc2)C1 (stereo not drawn) | inactive: 9.5% |
| Cc1ccc(C(=O)OC2CN3CCC2CC3)cc1 (stereo not drawn) | inactive: -11.1% |
| O=C(/C=C/c1ccccc1)OC1CN2CCC1CC2 (stereo not drawn) | inactive: -5.35% |
| CCCC1OP(=O)(Nc2ccccc2)OCC1CC (stereo not drawn) | inactive: -4.14% |
| CN(C)C1(CNC(=O)c2ccc(S(C)(=O)=O)cc2)CCCCC1 | inactive: 7.65% |
| COc1ccccc1CNC(=O)COC(=O)C(O)(c1ccccc1)c1ccccc1 | inactive: 1.93% |
| CC(C)/C=N\N=C(\N)N[N+](=O)[O-] | inactive: -4.48% |
| CN(C(=O)Cc1ccc(Cl)c(Cl)c1)[C@@H]1CCCC[C@H]1N1CCCC1 | inactive: -6.01% |
| CN(C(=O)Cc1ccc(Cl)c(Cl)c1)C1CCCC[C@@H]1N1CCCC1 (stereo partly drawn) | inactive: 3.7% |
| CN(CCCl)Cc1cc(Cl)c(NC2=NCCN2)c(Cl)c1 | inactive: -15.7% |
| CCOP(=O)(Nc1ccc(C)cn1)OCC | inactive: -1.22% |
| CCC1=CC2Cc3nc4ccc(Cl)cc4c(N)c3C(C1)C2 (stereo not drawn) | inactive: 21.2% |
| CCOP(=O)(NC(=NC(C)c1ccccc1)NC(C)c1ccccc1)OCC (stereo not drawn) | inactive: -7.23% |
| O=P1(N(CCCl)CCCl)NCCC(C(F)(F)F)O1 (stereo not drawn) | inactive: -12.7% |
| CC(C)(C)C(=O)NC(Sc1ncccn1)C(Cl)(Cl)Cl (stereo not drawn) | inactive: 18.8% |
| CCCOP(=S)(Nc1nc(N)cc(=O)[nH]1)OCCC | inactive: 12.6% |
| Cc1ccc(NCCc2c([N+](=O)[O-])cc([N+](=O)[O-])cc2[N+](=O)[O-])cc1 | inactive: -2.41% |
| Nc1cccc2c([As](=O)(O)O)cccc12 | inactive: 15.6% |
| CCOP(=O)(Nc1cccc2ccccc12)OCC | inactive: 4.44% |
| COc1cc(C(=O)NCC2(N3CCOCC3)CCCCC2)cc(Cl)c1OC(C)C | inactive: -9.19% |
| O=[As](O)(O)c1cccnc1 | inactive: -2.64% |

| Structure (SMILES) | inhibition |
| --- | --- |
| O=C(OC1CN2CCC1CC2)c1ccc(Cl)cc1 (stereo not drawn) | inactive: -4.42% |
| O=[As](O)(c1cccc(O)c1)c1cccc(O)c1 | inactive: 3.42% |
| NC(=O)Nc1ccc([As](=O)(O)O)cc1 | inactive: 4.23% |
| CN(C)C(=O)c1cc([N+](=O)[O-])cc2c1-c1c(cc([N+](=O)[O-])cc1[N+](=O)[O-])C2=O | inactive: 32.1% |
| CN(C(=O)Cc1ccc(Cl)c(Cl)c1)[C@H]1CC[C@@]2(CCCO2)C[C@@H]1N1CCCC1 | inactive: -5.72% |
| N#CCCN(C(=O)COC(=O)C(O)(c1ccccc1)c1ccccc1)c1ccc(F)cc1 | inactive: 2.94% |
| CN(C(=O)Cc1ccccc1)[C@@H]1CC[C@]2(CCCO2)C[C@H]1N1CCCC1 | inactive: -0.0785% |
| CCOP1(=S)c2c(C)nn(CCC#N)c2N=C(c2ccc(F)cc2)N1C (stereo not drawn) | inactive: 10.8% |
| CCOP1(=S)c2c(C)nn(CCC#N)c2N=C(c2ccccc2F)N1C (stereo not drawn) | inactive: -1.27% |
| O=P(Nc1nccs1)(Oc1ccccc1)Oc1ccccc1 | inactive: 2.93% |
| Nc1ccccc1[As](=O)(O)c1ccccc1 | inactive: 2.01% |
| O=C(O)COc1ccc([As](=O)(O)O)cc1[N+](=O)[O-] | inactive: 2.11% |
| CC(C)c1ccc(OP(=O)(Nc2ccccn2)Oc2ccccc2F)cc1 (stereo not drawn) | inactive: 1.65% |
| COC(=O)C1(C)COP(=O)(N2CCCCCC2)OC1 (stereo not drawn) | inactive: -1.91% |
| O=C(OC1CN2CCC1CC2)c1cccc2[nH]cnc12 (stereo not drawn) | inactive: -6.67% |
| CC(C)NC(=O)NP(=O)(Oc1ccccc1)Oc1ccccc1 | inactive: -0.1% |
| O=[As](O)(c1ccc(O)cc1)c1ccccc1O | inactive: 10.3% |
| C[As](=O)(O)c1cccc(C(=O)O)c1 | inactive: -4.06% |
| COc1cc(C(=O)NCC2(N3CCOCC3)CCCCC2)ccc1OCC(C)C | inactive: -8.43% |
| O=[N+]([O-])c1ccc(-c2cc([N+](=O)[O-])c(O)c([N+](=O)[O-])c2)cc1 | inactive: -8.85% |
| Cc1ccc2nc3c(c(C)c2c1)CC(C(Cl)Cl)S3 (stereo not drawn) | inactive: -37% |
| [N-]=[N+]=NC1CCCCC1NC(=O)c1cc([N+](=O)[O-])cc([N+](=O)[O-])c1 (stereo not drawn) | inactive: -1.43% |
| Cc1ccc(OP(=O)(Nc2ccc([N+](=O)[O-])cn2)Oc2ccc(C)cc2)cc1 | inactive: 7.11% |
| COc1ccc(N/C(=N/P(=O)(N2CCOCC2)N2CCOCC2)N2CCOCC2)cc1 | inactive: -7.75% |
| O=[N+]([O-])c1cc(Oc2ccc([N+](=O)[O-])cc2C(F)(F)F)cc([N+](=O)[O-])c1 | inactive: -6.73% |

| Structure (SMILES) | inhibition |
| --- | --- |
| Cc1cc(=O)[nH]c(N[N+](=O)[O-])n1 | inactive: 5.38% |
| Cc1c2c(nc3ccccc13)SC(C(Cl)Cl)C2 (stereo not drawn) | inactive: -12.1% |
| COc1ccc2nc(NP(=O)(c3ccccc3)c3ccccc3)sc2c1 | inactive: 2.76% |
| COc1cc(I)ccc1[As](=O)(O)O | inactive: -4.5% |
| COc1ccc(CN2/C(=N\P(=O)(Oc3ccccc3)Oc3ccccc3)Cc3ccccc3C2C2CC2)cc1 (stereo not drawn) | inactive: 30.9% |
| O=P1(N(CCCl)CCCl)OCCCN1CCCl (stereo not drawn) | inactive: -12.7% |
| O=P1(N(CCCl)CCCl)Nc2ccccc2N1 | inactive: -45.6% |
| CCOC(=O)c1ccc(NC(=O)C(C)(CCl)SC)cc1 (stereo not drawn) | inactive: -37.6% |
| O=C(OC1CN2CCC1CC2)c1cccc([N+](=O)[O-])c1 (stereo not drawn) | inactive: 7.72% |
| COP1(=S)c2c(C)nn(CCC#N)c2N=C(c2ccc(F)cc2)N1C (stereo not drawn) | inactive: 2.88% |
| COC(=O)C1(C)COP(=O)(N2CCCC2)OC1 (stereo not drawn) | inactive: 1.82% |
| O=C(Nc1ccncc1[N+](=O)[O-])c1ccc([N+](=O)[O-])cc1[N+](=O)[O-] | inactive: 1.87% |
| O=C(O)C(=O)c1ccc(N(CCCl)CCCl)cc1 | inactive: -2.17% |
| CCOC(=O)Nc1cccc([As](=O)(O)O)c1 | inactive: -11% |
| O=[N+]([O-])c1ccc(Nc2ccc(Oc3ccc([N+](=O)[O-])cc3[N+](=O)[O-])cc2)c([N+](=O)[O-])c1 | inactive: -12.1% |
| O=P(Nc1ccccn1)(c1cccc2ccccc12)c1cccc2ccccc12 | inactive: 2.15% |
| Cc1cc(SC(NC=O)C(Cl)(Cl)Cl)ncn1 (stereo not drawn) | inactive: 7.22% |
| CC1CCNP(=O)(N(CCCl)CCCl)O1 (stereo not drawn) | inactive: -4.69% |
| CCOC(=O)Nc1ccc([As](=O)(O)O)c(O)c1 | inactive: 0.65% |
| O=C(O)C(O)c1ccc(N(CCCl)CCCl)cc1 (stereo not drawn) | inactive: -0.0725% |
| CCCCOc1ccc(C(=O)NCC2(N3CCCCC3)CCCCC2)cc1OC | inactive: -10.5% |
| COP(=O)(OC)N1CC1c1ccccc1 (stereo not drawn) | inactive: 3.82% |
| CC(C)(C)C(=O)NC(Sc1ccncn1)C(Cl)(Cl)Cl (stereo not drawn) | inactive: -0.299% |
| O=[N+]([O-])c1ncn(CCn2ncnc2[N+](=O)[O-])n1 | inactive: -2.52% |
| O=[N+]([O-])c1cccc(NC2=NCC(CBr)S2)c1 (stereo not drawn) | inactive: 4.3% |

| Structure (SMILES) | inhibition |
| --- | --- |
| COC(=O)C1(C)COP(=O)(Nc2ccccc2)OC1 (stereo not drawn) | inactive: -5.65% |
| O=C(O)CNc1ccc([As](=O)(O)O)cc1 | inactive: 6.97% |
| O=P1(N(CCCl)CCCl)OCCCS1 (stereo not drawn) | inactive: 1.84% |
| O=C(Nc1cc([As](=O)(O)O)ccc1O)c1ccccc1 | inactive: -3.21% |
| Nc1ccc([As](=O)(O)c2ccc(N)cc2)cc1 | inactive: -8.88% |
| C[N+]1=C2C=CC=CC=C2SC12C([N+](=O)[O-])=CC([N+](=O)[O-])=C[C-]2[N+](=O)[O-] (stereo not drawn) | inactive: 32% |
| CCN(/C(=N/P(=O)(N1CCOCC1)N1CCOCC1)N1CCOCC1)c1ccc(OC)cc1 | inactive: 1.88% |
| CC(C)=N/N=C(\N)N[N+](=O)[O-] | inactive: 4.87% |
| CC(C)c1nc(Nc2ccccc2)n(P(=O)(N(C)C)N(C)C)n1 | inactive: 4.1% |
| c1cc(-c2nn[nH]n2)ccc1-c1nn[nH]n1 | inactive: -2.05% |
| COc1ccc(C2=NCC(CBr)S2)cc1 (stereo not drawn) | inactive: -8.54% |
| Cc1ccc(NP(=O)(Oc2ccccc2)Oc2ccccc2)nc1 | inactive: -1.06% |
| O=[N+]([O-])c1cc([N+](=O)[O-])c(CCNc2ccccc2)c([N+](=O)[O-])c1 | inactive: 26.6% |
| Nc1cc(N)c2nonc2c1[N+](=O)[O-] | inactive: 9.5% |
| O=C(NC(Sc1ccncn1)C(Cl)(Cl)Cl)c1ccccc1 (stereo not drawn) | inactive: 6.46% |
| NC(=O)c1cc([N+](=O)[O-])cc([N+](=O)[O-])c1N | inactive: 9.98% |
| CN(C(=O)Cc1ccc(Cl)c(Cl)c1)[C@H]1CCCC[C@H]1N1CCCC1 | inactive: 9.17% |
| Cc1ccc(N/C(=N/P(=O)(N2CCOCC2)N2CCOCC2)N2CCOCC2)cc1 | inactive: -1.95% |
| COc1ccccc1OP(=O)(Nc1ccc(C)cn1)Oc1ccccc1OC | inactive: 9.14% |
| Cc1ccc(OP(=O)(Nc2nccs2)Oc2ccc(C)cc2)cc1 | inactive: 9.87% |
| Clc1ccc(Cl)c(NC2=NCC(CBr)S2)c1 (stereo not drawn) | inactive: -1.03% |
| CN(C(=O)Cc1ccccc1)C1CC[C@@]2(CCCO2)C[C@@H]1N1CCCC1 (stereo partly drawn) | inactive: 4.62% |
| Nc1cccc2ccc([As](=O)(O)O)cc12 | inactive: -19.5% |
